Test results published in patent US4543350A, “Carcinostatic agent” (Sanyo Machine Works, Ltd., priority 1982, dated 1985).

Test system: BW 5174 (thymoma of AKR mouse)
Assay: Cytotoxicity test (51Cr release) of spleen and intraperitoneal cells of Eisenin-administered mice
Type: cell-based
Experimental: Balb/C mice were intraperitoneally administered with 15 mg of Eisenin, and the control group was administered with starch. Further, the target cell employed was BW 5174 (thymoma of AKR mouse). The spleen cells and the intraperitoneal cells were respectively divided into the adherent cells and the non-adherent cells, and cytotoxicity was examined in each case.
(1) Percent Cytotoxicity (%) in Table 3 is based on the following
(2) Measurement is made by ^51 Cr release assay. (3) Acute Toxicit

L-Pyroglu-L-Gln-L-Ala [Eisenin]
Percent Cytotoxicity, Intraperitoneal Cells Total (intraperitoneal cells, total, Balb/C mice i.p. 15 mg Eisenin, 51Cr release): 24%
difference in cytotoxicity versus control group, spleen cells (spleen cells): no significant difference
